S-ASM inh: blocks human secretory acid sphingomyelinase; P17405; placental ASM, HMU-PC fluorogenic substrate, 60 min; Potency, µM (series often up to 57.5 µM), for inactives: top-dose activity change, negative = inhibition, hits mostly inhibitors; 340,000 tested, 0.006% active; AID 504937; further: potency means the concentration at half of the fitted maximal effect
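Steps: dispense placental human ASM, pin compound, wait 10 min at room temperature, add HMU-PC0 substrate at 9 uM final, incubate 60 min at 37 °C, add stop solution raising pH to 10, read fluorescence.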
miR-21 reporter: miR-21 reporter, rising signal; HeLa miR-21 FLuc reporter, luciferase, 48 h; Potency, µM (top dose mostly 38.3 µM), without a hit: at the highest dose reporter change, positive = more light; 340,000 tested, under 10 active; active = well fitted rising curve with a large enough effect; inconclusive = small, poorly fitted or top-dose-only effect; inactive = no such curve, though single readings can be large or run the other way;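 further: % of control where 0% means no effect; miR-21 action dims this reporter so a rising signal means less miR-21 action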
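HeLa cells endogenously expressing miR-21, stably carrying CMV-driven firefly luciferase with a downstream miR-21 binding site, 2000 cells/well. Titrations up to approximately 40 uM, 48 hours; luciferase luminescence read.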
RXFP1 agonist: RXFP1 (human) receptor agonism; Q9HBX9; HEK293T-RXFP1 cAMP TR-FRET, 30 min; response scale: percent of porcine relaxin response, buffer zero; Potency, µM (titrated, usually from 57.5 µM), inactives show top-dose activation, actives largely listed as activators; 370,000 tested, 0.3% active; further: potency means the concentration at half of the fitted maximal effect; on the % scale 0 is the no-effect control and ±100 the full control effect; nearly all actives have a fitted effect of over 60% in size
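cAMP rise read by TR-FRET after 30 min, 37C compound exposure (up to 58 uM) in RXFP1-transfected HEK293 cells with Ro 20174 present. EC50 from Hill-equation fits, with 29 nM porcine relaxin as 100% and buffer as basal.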
Mito fusion yeast: mitochondrial division inhibition or fusion activation; S. cerevisiae fusion-defective mutant growth rescue, CellTiterGlo 48 h; Potency, µM (top dose mostly 46.1 µM), for inactives: top-dose growth rescue (activation), usual class: activators; 320,000 tested, 0.23% active; AID 485298; further: potency means the concentration at half of the fitted maximal effect; % of control where 0% means no effect; nearly all actives have a fitted effect of over 45% in size
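Growth-rescue viability read-out: after 48 h at the non-permissive 37C in glycerol/ethanol YPEG, yeast mitochondrial fusion mutants are measured by CellTiterGlo luminescence; compounds (23 nl pinned per well) restoring growth score as division inhibitors or fusion activators.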
RXFP1 antagonist: antagonists of human relaxin receptor RXFP1; Q9HBX9; HEK293-RXFP1, relaxin-stimulated cAMP HTRF, 30 min; stronger effect = lower value; activity change, negative = inhibition, % at 57.5 µM; 350,000 tested, 0.59% active;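 active means activity change of -60% or lower, but not beyond a set lower limit; inconclusive means change between -60% and -40%, or beyond the set limit; inactive means change above -40%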; further: on the % scale 0 is the no-effect control and ±100 the full control effect
ERG-DNA inh: ERG Ets/DNA interaction inhibition | P11308 | fluorescence polarization, His-ERG Ets domain / labelled DNA | Potency, µM (top dose mostly 76.9 µM), for the others: at the top dose FP activity, negative = inhibition, most hits filed as inhibitors | 370,000 tested, 0.028% active | AID 624246; active means well fitted inhibition curve with a large enough effect in the polarisation, with a control signal flat; inconclusive means small, poorly fitted or top-dose-only effect, or effect the other way, or a change in a side signal; inactive means no such curve, though single readings can be large or run the other way; the % refers to the polarisation;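 further: polarization taken with two DNA probes labelled with fluorescein and Texas red; potency means the concentration at half of the fitted maximal effect; % of control where 0% means no effect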
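His-tagged ERG Ets domain (1 uM in the protein solution; 300mM KCl, 50mM Tris-HCl, 1mM EDTA, 1mM DTT, pH 7.5) received compound, then a probe mix of 5 nM fluorescein-DNA and 100nM Texas-615-DNA. Fluorescence polarization was read for both dyes.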
Active calls of the source: *; u = inconclusive; x = no result. Rows were chosen to be rich in hits. Some 0.72% of all compounds tested hit in one or more screens of this group. Unless noted, the call rests on the fitted dose curve; in most records, active means well fitted curve in the direction sought with a large enough effect; inconclusive means small, poorly fitted or top-dose-only effect, or another doubt; inactive means no such curve, though single readings can be large; an effect the other way counts as inactive or inconclusive.

Below each SMILES: S-ASM inh | miR-21 reporter | RXFP1 agonist | Mito fusion yeast | RXFP1 antagonist | ERG-DNA inh
> CC(C)CC(=O)NC(=S)Nc1cccc2nsnc12
→ -2% | 5% | 5% | -7% | -70* | -1%
> CC1CCCCC1NC(=O)COC(=O)c1c2c(nc3ccccc13)/C(=C\c1ccco1)CC2 (stereo unspecified)
→ 32% | x | x | x | -65* | 9%
> CC(=O)c1ccc(NC(=O)c2ccc3c(c2)N(Cc2cccc(Cl)c2)C(=O)c2ccccc2S3(=O)=O)cc1
→ x | -9% | 0% | x | x | 4%
> O=C(c1ccc2c(c1)N(Cc1ccccc1Cl)C(=O)c1ccccc1S2)N1CCCC1
→ x | 10% | -4% | x | -68* | -11%
> CCOc1ccc(NC(=O)c2sc3nc4c(cc3c2N)CN(Cc2ccccc2)CC4)cc1
→ x | 6% | -1% | x | -8 | u
> Cc1ccc(S(=O)(=O)Nc2ccc(N=Nc3ccc(O)cc3)cc2)cc1
→ -10% | -13% | 0% | 20µM* | -27 | 7%
> O=C1C=C(O)c2cccc3cccc1c23
→ -7% | -5% | 18µM* | 4% | 22 | -1%
> O=Cc1cc(N=Nc2ccccc2Cl)ccc1O
→ -10% | -7% | -2% | u | -65* | 1%
> O=C(Nc1cc(Cl)ccc1Oc1ccccc1)C1=COCCO1
→ -4% | x | 0% | u | -75* | 5%
> Cc1oc(-c2ccccc2Cl)nc1CS(=O)CC(=O)N1CCN(c2cccc(C(F)(F)F)c2)CC1 (stereo unspecified)
→ x | u | 1% | x | u | 3%
> N=C1N=C(N)c2cc3ccccc3cc21
→ x | x | x | x | -80* | x
> Cc1cc(C)cc(N(CC(=O)NCc2ccco2)C(=O)c2snc(C(N)=O)c2N)c1
→ 170% | -8% | -1% | 0% | -60* | x
> COc1ccc(-n2ncc(C(=O)Nc3cccc(C(F)(F)F)c3)c2C2CCN(C(=O)OC(C)(C)C)CC2)cc1
→ x | 3% | -1% | x | -17 | -2%
> O=C(COC(=O)CNC(=O)c1ccc(Cl)cc1Cl)NC1CCCCCCC1
→ -5% | x | 0% | 6% | -61* | 2%
> O=C(COC(=O)COc1ccc(Cl)cc1Cl)NC1CCCCCC1
→ -3% | x | 1% | -1% | 6 | -4%
> O=C(Nc1ccccc1F)n1ncc2cc(Cl)ccc21
→ 1% | -20% | 0% | 5.6µM* | 0 | 0%
> CCOC(=O)c1ccccc1NC(=O)n1ncc2cc(Cl)ccc21
→ x | -10% | -3% | x | 6 | -1%
> Cc1ccc(Cl)cc1NC(=O)Cn1c(=O)n(Cc2ccccc2)c(=O)c2oc3ccccc3c21
→ x | 2% | 4% | x | 1 | 9%
> CCCN1C(=O)/C(=C/c2c(NCCCOCC)nc3c(C)cccn3c2=O)SC1=S
→ 2% | 2% | 1% | -2% | 5 | -17%
> Cc1cccn2c(=O)c(/C=C3\SC(=S)NC3=O)c(NCCCN3CCOCC3)nc12
→ -1% | -33% | 5µM* | 3% | 9 | 51%
> COc1ccc(OC)c2c1cc(C(=O)N[C@@H](Cc1ccccc1)C(=O)O)n2C
→ 3% | 0% | 4% | 0% | 7 | 0%
> CCCCc1ccc(N=N/C(C(=O)Nc2ccc(NC(C)=O)cc2OC)=C(/C)O)cc1
→ 22µM* | -5% | 0% | -2% | 7 | -5%
> COc1cccc(N2C(=O)Nc3ccc(Br)cc3C2(O)C(=O)NCCN(C)C)c1 (stereo unspecified)
→ -2% | -1% | 5% | 8% | 1 | -2%
> CCOC(=O)c1ccc(NC(=O)Cn2cc(C(=O)c3ccc(CC)cc3)c(=O)c3ccc(C)nc32)cc1
→ x | -5% | 32µM* | x | 0 | 0%
> C[C@H]1C=C(C(=O)NCc2nc3ccccc3[nH]2)O[C@@H](OCCCCO)C1
→ 5% | x | x | x | x | -9%
> CC(C)(C)[C@H]1C=C(C(=O)NCc2nc3ccccc3[nH]2)O[C@@H](OCCCCO)C1
→ 4% | 0% | 0% | 5.6µM* | x | -8%
> CC(C)C[C@H](NC(=O)CNC(=O)[C@H](Cc1ccc(O)cc1)NC(=O)[C@H](CO)NC(=O)[C@H](Cc1c[nH]c2ccccc12)NC(=O)[C@H](Cc1cnc[nH]1)NC(=O)[C@@H]1CCC(=O)N1)C(=O)N[C@@H](CCCN=C(N)N)C(=O)N1CCC[C@H]1C(=O)NCC(N)=O (stereo in doubt)
→ x | x | x | x | 23 | x
> NC[C@H]1O[C@H](O[C@H]2[C@H](O[C@@H]3O[C@H](CO)[C@@H](O)[C@H]3O)C(O)[C@H](N)C[C@@H]2N)[C@H](N)[C@@H](O)[C@@H]1O (stereo partly specified)
→ x | x | x | x | 0 | x
> CCCCN(CC)CCCNC(=O)c1ccc2c(c1)N(Cc1ccc(C)cc1)C(=O)c1ccccc1S2
→ x | u | 1% | x | -66* | 4%
> COc1ccc2cc(C=O)ccc2c1
→ x | x | x | x | -28 | x

Structures listed so far marked active in S-ASM inh:
mol,S-ASM inh,miR-21 reporter,RXFP1 agonist,RXFP1 antagonist,ERG-DNA inh
CCCCc1ccc(N=N/C(C(=O)Nc2ccc(NC(C)=O)cc2OC)=C(/C)O)cc1,22µM*,-5%,0%,7,-5%

A stretch from further up, for reference:
Below each SMILES: S-ASM inh | miR-21 reporter | RXFP1 agonist | Mito fusion yeast | RXFP1 antagonist | ERG-DNA inh
> Cc1cccn2c(=O)c(/C=C3\SC(=S)NC3=O)c(NCCCN3CCOCC3)nc12
→ -1% | -33% | 5µM* | 3% | 9 | 51%
> COc1ccc(OC)c2c1cc(C(=O)N[C@@H](Cc1ccccc1)C(=O)O)n2C
→ 3% | 0% | 4% | 0% | 7 | 0%

Later entries:
Keys – A = S-ASM inh; B = miR-21 reporter; C = RXFP1 agonist; D = Mito fusion yeast; E = RXFP1 antagonist; F = ERG-DNA inh
> C=CCOc1cccc(C2/C(=C(/O)c3ccc(C)cc3)C(=O)C(=O)N2CCN2CCOCC2)c1 (stereo unspecified)
  A: 1% | B: -10% | C: 3% | D: -1% | E: 1 | F: -5%
> CCCOc1cccc(C2/C(=C(/O)c3ccc4c(c3)CC(C)O4)C(=O)C(=O)N2CCN2CCOCC2)c1 (stereo unspecified)
  A: -1% | B: -3% | C: 25µM* | D: -1% | E: 17 | F: 2%
> C=CCOc1cccc(C2/C(=C(\O)c3ccc4c(c3)OCCO4)C(=O)C(=O)N2CCN2CCOCC2)c1 (stereo unspecified)
  A: 4% | B: -3% | C: 25µM* | D: 2% | E: 56 | F: 10%
> COc1ccc(-n2c(=O)c3sc4ccccc4c3n(CC(=O)NCc3ccccc3)c2=O)cc1
  A: x | B: -3% | C: 3% | D: x | E: x | F: 1%
> CCCCOc1ccc(Cl)cc1Nc1nc(NCCO)nc(N2CCCC2)n1
  A: -14% | B: x | C: x | D: x | E: x | F: x
> CCCCCCCCCCCCCCCC[N+](C)(C)CC
  A: -1% | B: x | C: 1% | D: -35% | E: -87* | F: 0%
> CCOC(=O)C1=C(C)NC(C)=C(C(=O)OCC)C1c1ccc(O)cc1
  A: 84% | B: -5% | C: 2% | D: -1% | E: 3 | F: 11%
> CCOC(=O)C1=C(C)NC(C)=C(C(=O)OCC)C1c1c(F)c(F)c(F)c(F)c1F
  A: x | B: x | C: x | D: 2.3µM* | E: x | F: x
> Cc1ccccc1C(=O)Nc1ccc(C(=O)N2CCCC(N(C)C)c3ccccc32)cc1 (stereo unspecified)
  A: x | B: x | C: x | D: x | E: 1 | F: x
> CC[n+]1c(/C=C/c2ccc(OC)c(OC)c2)ccc2ccccc21
  A: 29% | B: -35% | C: -1% | D: -3% | E: -1 | F: -2%
> CC[n+]1c(/C=C/c2ccc(N(C)C)cc2)ccc2ccccc21
  A: -21% | B: 27% | C: 3% | D: -22% | E: -91* | F: u
> O=C(CN1C(=O)C(=O)N(CCC2=CCCCC2)C1=O)c1c[nH]c2ccccc12
  A: -20% | B: x | C: x | D: x | E: -66* | F: -3%

High-throughput results as filed in PubChem BioAssay.
